# Measured affinities in a library of Ab-14 heavy chain variants

The target is the same throughout: PDVDLGDISGINAS, from the HR2 region of SARS-CoV-2 spike.

The variants keep the light chain, the linker and the frameworks of Ab-14 (scFv order VH, a (GGGGS)3 linker, VL).
VH: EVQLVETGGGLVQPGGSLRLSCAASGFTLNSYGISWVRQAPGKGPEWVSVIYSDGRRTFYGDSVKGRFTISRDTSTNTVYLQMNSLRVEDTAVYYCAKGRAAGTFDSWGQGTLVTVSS
VL: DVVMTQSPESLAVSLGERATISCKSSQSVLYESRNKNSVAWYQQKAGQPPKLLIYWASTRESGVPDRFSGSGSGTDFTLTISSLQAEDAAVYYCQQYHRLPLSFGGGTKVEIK

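Phage display of a naive human antibody library on the peptide gave the parent. These sequences belong to a second round, designed from the earlier measurements on random variants of the parent. Several design methods are mixed in this list. The assay is AlphaSeq: two haploid yeast populations carry antibody and antigen on their surface. The frequency of each diploid, read from paired DNA barcodes, reflects how well the two displayed proteins bind. Each replicate has its own calibration line, from reference interactions of the BCL2 family. Mating was done six times.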

Each variant is given by its three heavy chain CDRs, as the data file delimits them; those of the parent are GFTLNSYGIS, VIYSDGRRTFYGDSVK, GRAAGTFDS. Variants here have more than six changes. Each Kd is an estimate from the mating assay, the geometric mean of the replicates in which the pair was seen; lower is stronger. A pair that was not seen in any replicate is written "nd"; this usually means weak binding, but a binder can also be missed. A sequence measured in both rounds can read differently, since the two assays cover different ranges.

For GFDLNEYGIS, VIYADGIRTFYADSVK, GNTAGTFDS, the assay gave 470 pM (6 of 6 replicates).
For GFDLDEYGIS, VIYADGKRTAYVDSVK, GQNAGTFDV, the assay gave nd (0 of 6 replicates).
For GFNLKECGIS, VIYADGRRQMYANSVK, GEIGGTFLM, the assay gave nd (0 of 6 replicates).
For GFDLNEYGIS, VIYADGTRTAYADSVK, GQNAGTFDV, the assay gave 1.4 nM (5 of 6 replicates).
For GFDLNEYGIS, VIYADGMRTAYADSVK, GKNAGTFDL, the assay gave 350 pM (6 of 6 replicates).
For GFDLNEYGIS, VIYADGVRTFYADSVK, GQTAGTFDV, the assay gave 480 pM (6 of 6 replicates).
For GFDLNEYGIS, VIYADGRRTFYADSVK, GQLAGTFSI, the assay gave 230 pM (6 of 6 replicates).
For GFDLNEYGIS, VIYADGMRTAYADNVK, GSNAGTFDI, the assay gave 210 pM (6 of 6 replicates).
For GFDLNEYGIS, VIYADGMRTFYADSVK, GNTAGTFDV, the assay gave 460 pM (6 of 6 replicates).
For GFDLNEYGIS, VIYADGMRTAYDDSVK, GQVAGTFDS, the assay gave 480 pM (6 of 6 replicates).
For GFDLDEYGIS, VIYADGKRTAYADSVK, GTNAGTFDI, the assay gave 1.1 nM (6 of 6 replicates).
For GFDLNEYGIS, VIYADGQRTFYADSVK, GGNAGTFDV, the assay gave 920 pM (6 of 6 replicates).
For GFDLNEYGIS, VIYADGRRTAYSDSVK, GEAAGTFDM, the assay gave 390 pM (6 of 6 replicates).
For GFNLDEYGIS, VIYADGRRTAYADSVK, GENAGTFDV, the assay gave 94 pM (6 of 6 replicates).
For GFDLNEYGIS, VIYADGVRKFYADSVK, GNTAGTFDV, the assay gave 280 pM (6 of 6 replicates).
For EFDIQEYGIS, VIYADGKREAYKDKFK, GQVAGTFDA, the assay gave 38 pM (6 of 6 replicates).
For GFDINEYGIS, VIYADGRRTFYTDSVK, GGNAGTFDK, the assay gave 230 pM (6 of 6 replicates).
For GFDLNEYGIS, VIYADGKRTAYSDSVK, GNAAGTFDV, the assay gave 630 pM (6 of 6 replicates).
For GFDLEEYGIS, VIYADGQRTAYTDSVK, GNVAGTFDV, the assay gave 500 pM (6 of 6 replicates).
For GFDLNEYGIS, VIYADGVRTAYIDSVK, GETAGTFDV, the assay gave 620 pM (6 of 6 replicates).
For GFNLEEYGIS, VIYADGVRSFYIEDVK, GQWNADFIV, the assay gave nd (0 of 6 replicates).
For GFDLNEYGIS, VIYADGQRTAYADSVK, GKQAGTFDS, the assay gave 300 pM (6 of 6 replicates).
For GFDLNEYGIS, VIYADGKRTAYADSVK, GNHAGTFDV, the assay gave 74 pM (6 of 6 replicates).
For GFDLNEYGIS, VIYADGRRTAYSDSVK, GEVAGTFDM, the assay gave 840 pM (6 of 6 replicates).
For GFDLNEYGIS, VIYADGRRTAYVDSVK, GTNAGTFDQ, the assay gave 650 pM (6 of 6 replicates).
For GESLDSYGIS, VIYADGMRTSYTNSVK, GVWAGTFDG, the assay gave nd (0 of 6 replicates).
For GFDLNEYGIS, VIYADGRRTFYADKVK, GENAGTFDI, the assay gave 110 pM (5 of 6 replicates).
For GFNLDEYGIS, VIYADGSRQFYVDTFK, GNLVGLIVN, the assay gave nd (0 of 6 replicates).
For GFDLDEYGIS, VIYADGMRKAYADSVK, GNVAGTFDV, the assay gave 280 pM (6 of 6 replicates).
For GFDLDEYGIS, VIYADGMRTAYADNVK, GETAGTFDL, the assay gave 360 pM (6 of 6 replicates).
For GFDLDEYGIS, VIYADGLRQVYQDNVK, GVGFTTFTD, the assay gave nd (0 of 6 replicates).
For GFDLNEYGIS, VIYADGQRTFYTDSVK, GEVAGTFDS, the assay gave 490 pM (6 of 6 replicates).
For GENLEEYGIS, VIYADGIREQYTDQVK, GEQGGYFVT, the assay gave nd (0 of 6 replicates).
For GFDLNEYGIS, VIYADGRRTSYKDSVK, GETAGTFNV, the assay gave 93 pM (2 of 6 replicates).
For GFDLDEYGIS, VIYADGRRTFYADSVK, GTLAGTFDM, the assay gave 320 pM (6 of 6 replicates).
For GFDLNEYGIS, VIYADGRRSFYADSVK, GELAGTFDS, the assay gave 200 pM (6 of 6 replicates).
For GFDLNEYGIS, VIYADGRRTFYADKVK, GNVGGTFDI, the assay gave 700 pM (6 of 6 replicates).
For GEVLDEYGIS, VIYADGSRVQYTDAVK, GHLTGAFDM, the assay gave nd (0 of 6 replicates).
For GFNLDEYGIS, VIYADGMRTAYTDSVK, GEVAGTFDV, the assay gave nd (0 of 6 replicates).
For GFDLDEYGIS, VIYADGRRTAYADDVK, GNVAGTFDL, the assay gave 2.9 nM (6 of 6 replicates).
For GFDLNEYGIS, VIYADGRRTAYIDSVK, GTNAGTFDV, the assay gave 260 pM (6 of 6 replicates).
For GFDLNEYGIS, VIYADGRRTFYSDSVK, GENAGTFIQ, the assay gave 7.5 nM (1 of 6 replicates).
For GFDLNEYGIS, VIYADGRRTSYIDSVK, GNEAGTFDV, the assay gave 720 pM (6 of 6 replicates).
For GFDLLEYGIS, VIYADGMRVAYAKDVK, GMFGEFTVD, the assay gave nd (0 of 6 replicates).
For GFDLNEYGIS, VIYADGRRTAYVDSVK, GQLAGTFDT, the assay gave 460 pM (6 of 6 replicates).

A selection of 7 entries from above:

| CDR-H1 | CDR-H2 | CDR-H3 | Kd | seen in |
|---|---|---|---|---|
| GFDLNEYGIS | VIYADGKRTAYADSVK | GNHAGTFDV | 74 pM | 6 of 6 |
| GFDLNEYGIS | VIYADGRRSFYADSVK | GELAGTFDS | 200 pM | 6 of 6 |
| GFDLNEYGIS | VIYADGMRTAYDDSVK | GQVAGTFDS | 480 pM | 6 of 6 |
| GEVLDEYGIS | VIYADGSRVQYTDAVK | GHLTGAFDM | nd | 0 of 6 |
| GFDLDEYGIS | VIYADGKRTAYADSVK | GTNAGTFDI | 1.1 nM | 6 of 6 |
| GFDLNEYGIS | VIYADGRRTAYSDSVK | GEAAGTFDM | 390 pM | 6 of 6 |
| GFDLNEYGIS | VIYADGRRTAYVDSVK | GQLAGTFDT | 460 pM | 6 of 6 |

The parent sequence was in this pool as ten entries: three were never detected, three once, and four in most replicates, with averages from 2.2 nM to 240 nM. The authors' rule: three or more of the six replicates give a measured affinity, fewer mean a poor binder. Nonspecific signal, from three strains lacking the peptide, appeared in 1% of pairings of all heavy chain designs, centred on 120 nM (5% of these signals below 7.0 nM); values are not corrected for it.

Data: MIT Lincoln Laboratory AlphaSeq set, Li et al. 2023, doi:10.1038/s41467-023-39022-2, as distributed in FLAb.